Assay results taken from PMC5226287 (Pharmacology Research & Perspectives, 2016).

Conditions: human, in vivo

buprenorphine
t max: 2 (1–3) h
